Reference: patent US8242118B2, “Arylsulfonamide derivatives for use as CCR3 antagonists in the treatment of inflammatory and immunological disorders” (Axikin Pharmaceuticals Inc., priority 2001, dated 2012)

The chains behind the UniProt entries cited, without tags or fusion partners.
UniProt P51677, whole entry: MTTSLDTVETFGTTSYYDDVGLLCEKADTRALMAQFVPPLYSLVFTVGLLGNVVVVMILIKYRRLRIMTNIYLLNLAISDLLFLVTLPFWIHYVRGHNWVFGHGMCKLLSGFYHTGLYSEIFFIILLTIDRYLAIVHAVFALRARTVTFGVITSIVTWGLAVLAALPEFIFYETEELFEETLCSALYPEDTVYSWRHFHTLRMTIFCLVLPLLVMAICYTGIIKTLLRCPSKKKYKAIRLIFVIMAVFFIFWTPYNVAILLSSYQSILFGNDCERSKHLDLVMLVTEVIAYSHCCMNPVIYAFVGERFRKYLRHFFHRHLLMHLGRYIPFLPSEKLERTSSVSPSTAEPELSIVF

Columns and labels:
Human CCR3 [1] = molecular target: T1, Human CCR3 (Homo sapiens, UniProt P51677); test: Calcium mobilization assay, eotaxin-stimulated; conditions: read-out: Activity grade Ca2+ (IC50 class); human CCR3-transformed K562 cells, 10 nM eotaxin; compounds of about 40 to 90% purity; tested form: dihydrochloride
Method: (§1) • Human CCR3-transformed K562 cells were used. The cloned CCR3 cDNA was constructed with pcDNA3 vector and transfected into a IC562 cell line. The human CCR3-transformed K562 cells were maintained in RPMI-1640 (Cat.#22400-089, Life Technologies) supplemented with 10% FCS (Cat.#A-1115-L, Hyclone), 55 μM 2-mercaptoethanol (Cat.#21985-023, Life Technologies), 1 mM sodium pyruvate (Cat.#11360-070, Life Technologies), 100 units/ml of penicillin G and 100 μg/ml of streptomycin (Cat.#15140-122, Life Technologies), and 0.4 mg/ml of Geneticin (Cat.#10131-035, Life Technologies)(hereinafter called “culture medium”). Before the receptor binding assay, cells were pretreated with 5 mM sodium butyrate (Cat.#193-01522, Wako)-containing the culture medium (2×10^5 cells/ml) for 20-24 hours to increase the expression of CCR3. […] The non-specific binding was determined by parallel incubation in the presence of 500 nM of non-labeled eotaxin (Cat.#23209, Genzyme Techne). The radioactivities remained on the filter were measured by liquid scintillation counter (TopCount™, Packard) after an addition of 45 μl/well of scintillant (Microscint20, Cat.#6013621, Packard). The inhibition percent at each concentration of compound was calculated, and IC50 values were determined from the inhibition curve. […]

Human CCR3 [2] = molecular target: T1, Human CCR3; test: Receptor binding assay (RBA), [125I]-eotaxin; conditions: read-out: Activity grade RBA (IC50 class); human CCR3-transformed K562 cells, 0.1 nM [125I]-eotaxin; compounds of about 40 to 90% purity; tested form: dihydrochloride
Method: [Determination of IC50 Values of Compounds in Receptor Binding Assay]
as §1

O=S(=O)(c1cnccc1Oc1cc(Cl)cc(Cl)c1)N1CCNCC1
pIC50 (Human CCR3 [1]): > 6.00 | pIC50 (Human CCR3 [2]): > 6.00

pIC50: −log10 of the molar value.
